Results on 47 compounds are retold here after PubChem BioAssay AID2107 (National Center for Advancing Translational Sciences (NCATS), 2009).

Chains of the proteins cited; added tags and fusions are not shown. Residues count along the entry.
UniProt P06280, 32-429 limits assumed: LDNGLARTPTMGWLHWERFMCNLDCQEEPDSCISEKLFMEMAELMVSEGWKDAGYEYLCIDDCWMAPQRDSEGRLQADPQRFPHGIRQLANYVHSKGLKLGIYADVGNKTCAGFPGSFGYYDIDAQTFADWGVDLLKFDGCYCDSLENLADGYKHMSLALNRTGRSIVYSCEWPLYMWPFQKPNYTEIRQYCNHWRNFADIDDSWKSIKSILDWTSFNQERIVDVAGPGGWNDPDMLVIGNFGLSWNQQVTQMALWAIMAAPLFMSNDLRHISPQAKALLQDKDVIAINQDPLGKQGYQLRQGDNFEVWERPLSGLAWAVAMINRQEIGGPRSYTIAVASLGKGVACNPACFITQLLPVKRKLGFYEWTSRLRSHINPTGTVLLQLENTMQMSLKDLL

This is a selection; strong and weak results do not stand in their true shares. Calls of active or inactive are those of the source. Calls follow the shape of the dose curve; as a rule, active = well fitted inhibition curve with a large enough effect; inconclusive = small, poorly fitted or top-dose-only effect, or effect the other way; inactive = flat fitted curve, though single readings scatter.

The target of the assay is Alpha-galactosidase A (Homo sapiens) (UniProt P06280). Kind of assay: qHTS Assay for Inhibitors and Activators of Human alpha-Galactosidase From Spleen Homogenate.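 Also: 0% = enzyme with vehicle and -100% = no enzyme basal signal.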 Particulars: 4MU-alpha-Gal fluorescence, 40 min; at 80 µM (top of the series) unless noted. The text has this:
NIH Chemical Genomics Center [NCGC] NIH Molecular Libraries Probe Production Centers Network [MLPCN] MLPCN Grant: R03 MH084842-01 Assay Submitter (PI): Wei Zheng NCGC Assay Overview: Alpha-galactosidase is a homodimeric glycoprotein that hydrolyzes the terminal alpha-galactosyl moieties from glycolipids and glycoproteins. Deficiency of this enzyme results in Fabry Disease with progressive accumulation of globotriaosylceramide and other glycosphingolipids in vascular endothelial cells that causes renal failure, myocardial infarction and stroke, and premature death in patients. It has been reported that the improper folding and trafficking of alpha-galactosidase resulting from genetic mutations may account for a significant number of Fabry patients. […] We optimized this alpha-galactosidase assay in 1536-well plate format for identification of novel small molecule inhibitors or activators with structures other than the sugar analogs in order to develop new pharmacological chaperones. In particular, this assay is directed towards discovering compounds active in more natural setting, tissue homogenate, that may have been missed by screens of the purified enzyme under more stringent conditions.
NCGC Assay Protocol Summary: This is a fluorogenic enzyme assay with 4-methylumbelliferyl-alpha-D-galactopyranoside as the substrate and human spleen homogenate containing alpha-galactosidase as the enzyme preparation. Upon hydrolysis of this fluorogenic substrate, the resulting product, 4-methylumbelliferone (which excites at 365 nm and emits at 440 nm) can be detected by a fluorescence plate reader. Data were normalized to the controls for basal activity (without enzyme) and 100% activity (with enzyme). The AC50 values were determined from concentration-response data modeled with the standard Hill equation. Assay buffer: 50 mM citric acid (titrated with potassium phosphate to pH 5.0), 0.01% Tween-20 (pH 5.0 is an optimal condition for this enzyme assay) 1536-well assay protocol for the alpha-galactosidase from human spleen homogenate: (1) Add 2 ul/well spleen homogenate (1 ug) (2) Add 23 nL compounds in DMSO solution. The final titration was 0.5 nM to 58 uM. (3) Add 2 ul of substrate (1 mM final) (4) Incubate at 37C for 40 min (5) Add 2 ul stop solution (1M NaOH and 1M Glycine mixture, pH 10) (6) Detect the assay plate in a ViewLux plate reader (PerkinElmer) with Ex=365 nm and Em=440nm. Keywords: Alpha-galactosidase, Fabry Disease, pharmacological chaperone, chaperone therapy, high throughput screening, alpha- galactosidase inhibitor, MLSMR, MLSCN, NIH Roadmap, qHTS and NCGC
(In general: In qHTS, concentration-response curves come from the screen itself.)
Turning to `COc1ccc(OP(C)(=O)Nc2ccccn2)cc1` (configuration not stated), the activity change, negative = inhibition is inactive: 4.57%.
Regarding `CN(C)CCOC(=O)C(O)(c1ccccc1)C1CCCC1` (configuration not stated), the activity change, negative = inhibition is inactive: -2.15%.
For `COc1ccccc1OP(C)(=O)Nc1ccc(Br)cc1` (configuration not stated) the value was inactive: -0.28%.
For `CP(=O)(OCCOc1ccccc1)OCCOc1ccccc1` the value was inactive: 2.03%; for `CP(=O)(Nc1ccc(Cl)cc1Cl)Oc1ccccc1` (configuration not stated), inactive: -0.445%.
In the case of `Cc1nc2ccc3ccccc3c2o1.O=[N+]([O-])c1cc([N+](=O)[O-])c(O)c([N+](=O)[O-])c1`, the activity change, negative = inhibition was inactive: -7.13%.
For `COc1ccccc1OP(C)(=O)Nc1ccc(C)c(C)c1` (configuration not stated) the value was inactive: -2.91%; for `COc1ccc(OP(C)(=O)Nc2ccccc2Br)cc1` (configuration not stated), inactive: -4.72%; for `Cc1cc(C)cc(OP(C)(=O)Nc2cccc(C(F)(F)F)c2)c1` (configuration not stated), inactive: 3.79%.
For `C/C1=C2N=C(/C=C3N=C(/C(C)=C4\[N-][C@@](C)([C@H]5N=C1[C@@](C)(CCC(=O)NC[C@H](C)OP(=O)([O-])O[C@@H]1[C@H](O)[C@H](n6cnc7cc(C)c(C)cc76)O[C@@H]1CO)[C@@H]5CC(N)=O)[C@](C)(CC(N)=O)[C@H]4CCC(N)=O)[C@@](C)(CC(N)=O)[C@@H]\3CCC(N)=O)C(C)(C)[C@@H]/2CCC(N)=O.[C-]#N.[Co+3]` the value was inactive: 1.14% [at 29.1 µM].
As to `CCOC(=O)c1ccc(NP(C)(=O)Oc2ccc(Cl)cc2)cc1` (configuration not stated), the activity change, negative = inhibition was inactive: 3.67%.
Take `CP(=O)(OC12CC3CC(CC(C3)C1)C2)OC12CC3CC(CC(C3)C1)C2`: the activity change, negative = inhibition is inactive: -1.05%.
Consider `CN(C)C(=O)c1c([N+](=O)[O-])cc([N+](=O)[O-])cc1[N+](=O)[O-]`, for which the activity change, negative = inhibition was inactive: 6.09%.
To `CC(C)(C)c1ccc(OP(C)(=O)O)cc1` belongs inactive: -1.76%; to `COc1ccccc1OP(C)(=O)Nc1ccccc1Br` (configuration not stated), inactive: -3.31%; to `CP(=O)(Nc1ccc(Cl)cc1)Oc1ccc(F)cc1` (configuration not stated), inactive: 5.8%.
With `COc1ccccc1OP(C)(=O)Nc1c(C)n(C)n(-c2ccccc2)c1=O` (configuration not stated), the activity change, negative = inhibition was inactive: -3.64%.
Regarding `O=C(OCCCN1CCCC1)C(O)(c1ccccc1)C1CCCCC1` (configuration not stated), the activity change, negative = inhibition is inactive: -28.8%.
As for `OCCSCCO`, the activity change, negative = inhibition was inactive: -4.2%.
For `CP(=O)(Oc1ccccc1)N1CCOC1=O` (configuration not stated) the value was inactive: -1.76%; for `CCc1ccc(OP(C)(=O)Nc2cccnc2)cc1` (configuration not stated), inactive: -1.87%; for `CCN(CC)CC(O)COC(=O)C(O)(c1ccccc1)C1CCCCC1` (configuration not stated), inactive: -6.88%.
For `COc1ccc(OP(C)(=O)Nc2ccc(Br)cc2)cc1` (configuration not stated), the activity change, negative = inhibition is inactive: 6.43%.
As to `CCN(CCCl)Cc1ccccc1C`, the activity change, negative = inhibition was inactive: 10.8%.
For `Cc1ccccc1NP(C)(=O)Nc1ccccc1C` the value was inactive: -4.87%.
As to `[NH4+].[O-][Cl+3]([O-])([O-])[O-]`, the activity change, negative = inhibition is inactive: 7.43%.
As to `CP(=O)(Nc1ccc2c(c1)OCCO2)Oc1ccccc1` (configuration not stated), the activity change, negative = inhibition was inactive: -8.12%.
For `CCOP(C)(=S)SCC(=O)NC(C)(CC)C(=O)O` (configuration not stated) the value was inactive: -6.45%; for `CCOP(=O)(CC)OCC`, inactive: 0.284%; for `CP(=O)(Nc1ccc(SC(F)(F)F)cc1)Oc1ccc(F)cc1` (configuration not stated), inactive: 1.22%.
As to `O=[N+]([O-])c1ccc(OP2(=O)COCCO2)cc1` (configuration not stated), the activity change, negative = inhibition is inactive: 11%.
To `Cc1c([N+](=O)[O-])cccc1[N+](=O)[O-]` belongs inactive: 2.31%; to `Cc1ccc([N+](=O)[O-])c([N+](=O)[O-])c1`, inactive: -0.219%.
For `Cc1cc(-c2cccc3ccccc23)c(C)cn1.O=[N+]([O-])c1cc([N+](=O)[O-])c(O)c([N+](=O)[O-])c1` the value was inactive: -0.0451%.
For `CN(C)CCOC(=O)C(O)(c1ccccc1)C1CCCCC1` (configuration not stated), the activity change, negative = inhibition was inactive: -7.48%.
Consider `COc1ccc(NP(C)(=O)Oc2ccccc2OC)cc1` (configuration not stated), for which the activity change, negative = inhibition was inactive: 0.0488%.
Consider `COc1ccc(OP(C)(=O)Nc2cccc(Br)c2)cc1` (configuration not stated), for which the activity change, negative = inhibition was inactive: -1.94%.
As to `CP(=O)(Nc1ccccc1)Oc1ccc(F)cc1` (configuration not stated), the activity change, negative = inhibition was inactive: 0.381%.
For `CCCCCOc1ccc(NP(C)(=O)Oc2ccc(Cl)cc2Cl)cc1` (configuration not stated) the value was inactive: 6.79%; for `CCN(CC)CCCOC(=O)C(O)(c1ccccc1)C1CCCCC1` (configuration not stated), inactive: -5.37%.
`CCOC(=O)c1ccc(NP(C)(=O)Oc2ccc(F)cc2)cc1` (configuration not stated): the activity change, negative = inhibition is inactive: -2.09%.
As to `COc1ccc(OP(C)(=O)Nc2ccc(SC(F)(F)F)cc2)cc1` (configuration not stated), the activity change, negative = inhibition was inactive: -1.81%.
For `CCC(C)(OO)OOC(C)(CC)OO` (configuration not stated) the value was inactive: 7.63%.
For `Cc1cccc([N+](=O)[O-])c1[N+](=O)[O-]` the value was inactive: 1.5%; for `O=C(OCCN1CCN(CCOCc2ccccc2)CC1)C(O)(c1ccccc1)c1ccccc1`, inactive: 1.58%; for `CP(=O)(Nc1ccccc1F)Oc1ccccc1` (configuration not stated), inactive: -2.93%.
To `CC(C)c1ccc(OP(C)(=O)Nc2ccc(SC(F)(F)F)cc2)cc1` (configuration not stated) belongs inactive: 2.13%.
